AlphaSeq binding of Ab-14 light chain variants to a spike HR2 peptide

Source: Li et al. 2023 (doi:10.1038/s41467-023-39022-2), MIT Lincoln Laboratory and A-Alpha Bio; data file from the FLAb repository.

All variants were tested on one target, the spike HR2 peptide PDVDLGDISGINAS (SARS-CoV-2).

Parent scFv Ab-14: VH joined to VL by a 15-residue (Gly4Ser)3 linker. Changes lie in the light chain CDRs alone.
VH: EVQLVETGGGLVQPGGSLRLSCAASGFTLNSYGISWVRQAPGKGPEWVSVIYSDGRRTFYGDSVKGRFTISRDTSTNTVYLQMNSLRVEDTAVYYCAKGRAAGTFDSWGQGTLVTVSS
VL: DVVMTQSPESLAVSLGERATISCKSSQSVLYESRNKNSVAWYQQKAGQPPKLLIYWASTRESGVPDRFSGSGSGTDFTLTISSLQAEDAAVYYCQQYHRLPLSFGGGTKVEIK

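The starting antibody came from a phage panning campaign against this peptide. This is the validation round: designs drawn from the data on random variants, tested in the same kind of assay. Several design methods are mixed in this list. The assay is AlphaSeq: two haploid yeast populations carry antibody and antigen on their surface. Mating (16 h, 30 °C) was followed by selection of diploids and sequencing of their barcodes. Each replicate has its own calibration line, from reference interactions of the BCL2 family. The assay was run in six technical replicates.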

Variants are written as CDR1, CDR2 and CDR3 of the light chain (limits as in the source). Parent: KSSQSVLYESRNKNSVA, WASTRES, QQYHRLPLS. Variants here have at most six changes. Kd is apparent (estimated from mating counts) and averaged on the log scale over replicates with a signal. Smaller is tighter. "nd" marks a missing value. The strain was present, yet no cells mated with the target were sequenced in any replicate, which points to weak or no binding. The authors averaged sequences with at least three values out of six and counted those with two or fewer as poor binders. Three control strains display no target. For all light chain designs, 4% of the pairings with them gave a signal, with a median of 430 nM and one signal in twenty below 38 nM, so weak values seen in few replicates may be background. For each scFv, signals with the empty controls are counted beside the result. The range of this assay differs from that of the first round, and the authors advise against merging the two.

| CDR-L1 | CDR-L2 | CDR-L3 | Kd (apparent) | replicates with signal | signal with controls |
|---|---|---|---|---|---|
| KLSQSELYESRNFNSVA | NASQRES | QQYHRLPLS | 1.5 nM | 6/6 | 1/18 |
| KLSQSVLYESRNKNSVA | NASTRYS | QQYHRLPLS | 1.2 nM | 6/6 | 1/18 |
| KLSQSVLYESRNANNVA | HASTRES | QQYHRLPLS | 650 pM | 6/6 | 1/18 |
| KSSQSVLYESRNPNSVA | WASTRES | QQYWRLFLS | nd | 0/6 | 0/18 |
| KSSFGVLYESRNKNSVA | WASTRES | QQYHRLPLS | 470 nM | 1/6 | 1/18 |
| KFSQSVLYESRDKNGVA | NASTRES | QQYHRLPLS | 1.4 nM | 6/6 | 3/18 |
| KSSQSVLYESRNKNSVA | WASTRES | QQYVRLPLS | 19 nM | 6/6 | 0/18 |
| KSSQSVLYEYRNKNSVA | NGSTRES | QQYHRLPLS | 2.9 nM | 6/6 | 3/18 |
| KSSQSVSYESGNKNSVA | QASIRES | QQYHRMPLS | 8.6 nM | 6/6 | 0/18 |
| KLSQSVLYESRNKNNVA | NASYRES | QQYHRLPLS | 410 pM | 6/6 | 1/18 |
| KSSQKVLYESRVKNSVA | QASTRES | QQYHRLPLS | 3.6 nM | 6/6 | 0/18 |
| KLSQSVLYQSRMKNSVA | NASTRES | QQYHRLPLS | 690 pM | 6/6 | 1/18 |
| HLSQSQLYESRNKNSVA | NASTRES | QQYHRLPLS | 2.4 nM | 6/6 | 0/18 |
| KLSISFLYESRNKNSVA | EASTRES | QQYHRLPLS | 480 pM | 6/6 | 1/18 |
| KVSQSVLYESRNKNSVA | NASTRES | QQYHRLPLE | 440 pM | 6/6 | 1/18 |
| KFSQSVLYESRNKNSVA | NASTREW | QQYHRLPLS | 560 pM | 6/6 | 0/18 |
| KSSQSVLYESNNKNSVA | SASTRES | QQYHRLPLS | 4.0 nM | 6/6 | 0/18 |
| KLSQSVLYESRNKNNVA | SASTRMS | QQYHRLPLS | 510 pM | 6/6 | 0/18 |
| KFQQKVLYEGRTKNSVA | NASTRES | QQYHRLPLS | 2.5 nM | 6/6 | 1/18 |
| KSSCSYLYESRNKNSVA | AASTRES | QQYHRLPLS | 3.1 nM | 6/6 | 5/18 |
| KLDQSQLYESRNKNSVA | SASTRES | QQYHRLPLS | 900 pM | 6/6 | 0/18 |
| KSSPSVLYESRNKNNVA | NASTRES | QQYHRLPLS | 3.4 nM | 6/6 | 1/18 |
| HSSPSVLYDSRNKNSVA | NASTRES | QQYHRLPLS | 780 pM | 6/6 | 1/18 |
| KSSQSVLYESMNKNSVA | WASTRES | QQYHRLPLF | 160 nM | 2/6 | 0/18 |
| KLSQSDLYESRNKNSVA | GASTRES | QDYHRLPLS | 2.2 nM | 6/6 | 2/18 |
| KLSQSTLYGSRNKNSVA | NASTRES | QQYHRLPLS | 650 pM | 6/6 | 1/18 |
| KSSQSVLYESRNKNSVA | NASTRES | QQYHRIPLS | 54 nM | 6/6 | 2/18 |
| KLSMSMLYESRNKNSVA | NASTRLS | QQYHRLPLS | 500 pM | 6/6 | 1/18 |
| KMQQSWLYESRNKNSVA | NASTRES | QQYHRLPLS | 430 pM | 6/6 | 1/18 |
| KFSQSVLYESRDKNSVA | DASTRES | QQYHRLPLS | 640 pM | 6/6 | 1/18 |
| KLYQSQGYESRNKNSVA | NASTRES | QQYHRLPLS | 1.1 nM | 6/6 | 2/18 |
| KVSQSVLYESRVKNSVA | EASTRES | QQYHRLPLS | 940 pM | 6/6 | 2/18 |
| KSSQSVAMESSNANSVA | DASTRES | QQYHRLPLS | 1.3 nM | 6/6 | 0/18 |
| KSSQSVLYESRNKNSVA | HASIREY | QQYHRLPLS | 8.1 nM | 6/6 | 0/18 |
| KSSISYLYESRNMNSVA | EASTREQ | QQYHRLPLS | 720 pM | 6/6 | 1/18 |
| KSSQSFLPESRNKNSVA | GASTRES | QQYHRLPLS | 2.1 nM | 6/6 | 0/18 |
| KCSQSVLGEQRNKNSVA | DISTRES | QQYHRLPLS | 780 pM | 6/6 | 0/18 |
| KFSQSVLYESRDKNSVA | WASTRES | QQYHRLPLS | 4.2 nM | 6/6 | 2/18 |
| TFSQSWLYESRNKNSVA | GASTRES | QQYHRLPLS | 440 pM | 6/6 | 1/18 |
| KSQQSVEYESRNKNNVA | HASTRED | QQYARLPLS | 2.7 nM | 6/6 | 0/18 |
| KSSQSVLYESRNLNSVA | NASTRES | QQYHRLPLS | 1.4 nM | 6/6 | 0/18 |
| KSSQSVLYESRNKNSVA | WANTRES | QQYHRLPLS | 120 nM | 3/6 | 1/18 |
| KTSQSVLYESDNKNSVA | WASTRES | QQYHRLPLS | 12 nM | 4/6 | 0/18 |
| KLMQSQLYESRNKNSVA | NASTRLS | QQYHRLPLS | 4.6 nM | 6/6 | 0/18 |
| KIPQGVLYESRNKNSVA | GASTRES | QQYHRLPLS | 690 pM | 6/6 | 1/18 |
| KLSQSFLMESRNKNSVA | DASTRES | QQYHRLPLS | 270 pM | 6/6 | 1/18 |
| KVSQSVLYESRNKNSVA | WASCRES | QQYHRLPLS | 30 nM | 6/6 | 0/18 |
| KSSQSWWYESRNKNSVA | GASTRES | QQYHRLPLS | 390 pM | 6/6 | 0/18 |
| KSGQGVLYESRNKNSVA | GASTRES | QQYHRLPLQ | 3.6 nM | 6/6 | 1/18 |
| KSSQSVLYESRNANSVA | WDSTRES | QQYHRLPLS | 34 nM | 3/6 | 0/18 |
| KLRQSTLYESRNWNSVA | NASTRES | QQYHRLPLS | 2.4 nM | 6/6 | 1/18 |
| KVSQSVLYESGTKNSVA | NASWRES | QQYHRLPLS | 1.4 nM | 6/6 | 0/18 |
| KSSQSVSMESRNKNSVA | WASTRES | QQYHRLPLS | 62 nM | 6/6 | 0/18 |
| KASQEKLYESRNKNSVA | DASTRES | QQYHRLPLS | 21 nM | 4/6 | 0/18 |
| KVSGSWLYESRNKNSVA | NASTRES | QQYHRLPLS | 940 pM | 6/6 | 0/18 |
| KVSQSKLYESRNKNSVA | NASQRES | QQYHRLPLS | 850 pM | 6/6 | 0/18 |

The 5 strongest on average among those seen in every replicate, once more:

| CDR-L1 | CDR-L2 | CDR-L3 | Kd (apparent) | replicates with signal | signal with controls |
|---|---|---|---|---|---|
| KLSQSFLMESRNKNSVA | DASTRES | QQYHRLPLS | 270 pM | 6/6 | 1/18 |
| KSSQSWWYESRNKNSVA | GASTRES | QQYHRLPLS | 390 pM | 6/6 | 0/18 |
| KLSQSVLYESRNKNNVA | NASYRES | QQYHRLPLS | 410 pM | 6/6 | 1/18 |
| KMQQSWLYESRNKNSVA | NASTRES | QQYHRLPLS | 430 pM | 6/6 | 1/18 |
| KVSQSVLYESRNKNSVA | NASTRES | QQYHRLPLE | 440 pM | 6/6 | 1/18 |